Source: patent US6962920B2, “Pyrimidine derivatives and methods of making and using these derivatives” (Duquesne University of the Holy Ghost, priority 1992, dated 2005)

By UniProt entry, the sequences of proteins in these tests, tags left out.
UniProt Q920D2, whole entry: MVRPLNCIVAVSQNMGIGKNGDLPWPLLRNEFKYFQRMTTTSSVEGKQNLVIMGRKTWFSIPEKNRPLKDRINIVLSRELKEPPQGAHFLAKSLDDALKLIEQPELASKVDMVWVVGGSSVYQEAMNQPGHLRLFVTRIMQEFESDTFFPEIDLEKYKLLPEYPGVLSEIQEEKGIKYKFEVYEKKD

What was measured:
ACHN = experiment: NCI in vitro anti-cancer activity, Renal Cancer; details: Table 31, Renal Cancer
RXF 393 = experiment: NCI in vitro anti-cancer activity, Renal Cancer; details: Table 31, Renal Cancer, RXF 393
786-0 = experiment: NCI in vitro anti-cancer activity, Renal Cancer; details: Table 31, Renal Cancer
UO-31 = experiment: NCI in vitro anti-cancer activity, Renal Cancer; details: Table 31, Renal Cancer
CAKI-1 = experiment: NCI in vitro anti-cancer activity, Renal Cancer; details: Table 31, Renal Cancer
TK-10 = experiment: NCI in vitro anti-cancer activity, Renal Cancer; details: Table 31, Renal Cancer
SNB-19 = experiment: NCI in vitro anti-cancer activity, CNS Cancer; details: Table 31, CNS Cancer
U251 = experiment: NCI in vitro anti-cancer activity, CNS Cancer; details: Table 31, CNS Cancer
SF-268 = experiment: NCI in vitro anti-cancer activity, CNS Cancer; details: Table 31, CNS Cancer
SNB-75 = experiment: NCI in vitro anti-cancer activity, CNS Cancer; details: Table 31, CNS Cancer, SNB-75
SF-539 = experiment: NCI in vitro anti-cancer activity, CNS Cancer; details: Table 31, CNS Cancer
SF-295 = experiment: NCI in vitro anti-cancer activity, CNS Cancer; details: Table 31, CNS Cancer
COLO 205 = experiment: NCI in vitro anti-cancer activity, Colon Cancer; details: Table 31, Colon Cancer
HCT-116 = experiment: NCI in vitro anti-cancer activity, Colon Cancer; details: Table 31, Colon Cancer
HT29 = experiment: NCI in vitro anti-cancer activity, Colon Cancer; details: Table 31, Colon Cancer
SW-620 = experiment: NCI in vitro anti-cancer activity, Colon Cancer; details: Table 31, Colon Cancer
HCT-15 = experiment: NCI in vitro anti-cancer activity, Colon Cancer; details: Table 31, Colon Cancer
HCC-2998 = experiment: NCI in vitro anti-cancer activity, Colon Cancer; details: Table 31, Colon Cancer
KM12 = experiment: NCI in vitro anti-cancer activity, Colon Cancer; details: Table 31, Colon Cancer
OVCAR-4 = experiment: NCI in vitro anti-cancer activity, Ovarian Cancer; details: Table 31, Ovarian Cancer
OVCAR-8 = experiment: NCI in vitro anti-cancer activity, Ovarian Cancer; details: Table 31, Ovarian Cancer
SK-OV-3 = experiment: NCI in vitro anti-cancer activity, Ovarian Cancer; details: Table 31, Ovarian Cancer
OVCAR-5 = experiment: NCI in vitro anti-cancer activity, Ovarian Cancer; details: Table 31, Ovarian Cancer
OVCAR-3 = experiment: NCI in vitro anti-cancer activity, Ovarian Cancer; details: Table 31, Ovarian Cancer
IGROV1 = experiment: NCI in vitro anti-cancer activity, Ovarian Cancer; details: Table 31, Ovarian Cancer
MDA-N = experiment: NCI in vitro anti-cancer activity, Breast Cancer; details: Table 31, Breast Cancer
BT-549 = experiment: NCI in vitro anti-cancer activity, Breast Cancer; details: Table 31, Breast Cancer
MCF7 = experiment: NCI in vitro anti-cancer activity, Breast Cancer; details: Table 31, Breast Cancer
MDA-MB-435 = experiment: NCI in vitro anti-cancer activity, Breast Cancer; details: Table 31, Breast Cancer
MDA-MB-231/ATCC = experiment: NCI in vitro anti-cancer activity, Breast Cancer; details: Table 31, Breast Cancer
HS 578T = experiment: NCI in vitro anti-cancer activity, Breast Cancer; details: Table 31, Breast Cancer
PC-3 = experiment: NCI in vitro anti-cancer activity, Prostate Cancer; details: Table 31, Prostate Cancer
DU-145 = experiment: NCI in vitro anti-cancer activity, Prostate Cancer; details: Table 31, Prostate Cancer
NCI-H226 = experiment: NCI in vitro anti-cancer activity, Non-Small Cell Lung Cancer; details: Table 31, Non-Small Cell Lung Cancer
A549/ATCC = experiment: as above; details: Table 31, Non-Small Cell Lung Cancer
NCI-H23 = experiment: as above; details: Table 31, Non-Small Cell Lung Cancer
NCI-H522 = experiment: as above; details: Table 31, Non-Small Cell Lung Cancer
HOP-62 = experiment: as above; details: Table 31, Non-Small Cell Lung Cancer
EKVX = experiment: as above; details: Table 31, Non-Small Cell Lung Cancer
HOP-92 = experiment: as above; details: Table 31, Non-Small Cell Lung Cancer
RL DHFR = RL DHFR (Rattus norvegicus, UniProt Q920D2); experiment: Inhibition of DHFR from rat liver; format: biochemical
SK-MEL-2 = experiment: NCI in vitro anti-cancer activity, Melanoma; details: Table 31, Melanoma
M14 = experiment: NCI in vitro anti-cancer activity, Melanoma; details: Table 31, Melanoma
UACC-257 = experiment: NCI in vitro anti-cancer activity, Melanoma; details: Table 31, Melanoma
UACC-62 = experiment: NCI in vitro anti-cancer activity, Melanoma; details: Table 31, Melanoma
MALME-3M = experiment: NCI in vitro anti-cancer activity, Melanoma; details: Table 31, Melanoma
LOX IMVI = experiment: NCI in vitro anti-cancer activity, Melanoma; details: Table 31, Melanoma
SK-MEL-28 = experiment: NCI in vitro anti-cancer activity, Melanoma; details: Table 31, Melanoma
SR = experiment: NCI in vitro anti-cancer activity, Leukemia; details: Table 31, Leukemia
CCRF-CEM = experiment: NCI in vitro anti-cancer activity, Leukemia; details: Table 31, Leukemia, CCRF-CEM
RPMI-8226 = experiment: NCI in vitro anti-cancer activity, Leukemia; details: Table 31, Leukemia
HL-60 (TB) = experiment: NCI in vitro anti-cancer activity, Leukemia; details: Table 31, Leukemia
MOLT-4 = experiment: NCI in vitro anti-cancer activity, Leukemia; details: Table 31, Leukemia
K-562 = experiment: NCI in vitro anti-cancer activity; details: Table 31, Leukemia
NCI-H460 = experiment: NCI in vitro anti-cancer activity, Non-Small Cell Lung Cancer; format: cell-based; details: Table 31, Non-Small Cell Lung Cancer
SK-MEL-5 = experiment: NCI in vitro anti-cancer activity, Melanoma; format: cell-based; details: Table 31, Melanoma
NCI/ADR-RES = experiment: NCI in vitro anti-cancer activity, breast cancer; details: Table 31, Breast Cancer, NCI/ADRRES

Nc1nc(N)c2c(CNc3ccc4c(c3)Cc3ccccc3-4)coc2n1
GI50 (ACHN): > 100 µM
GI50 (RXF 393): > 100 µM
GI50 (786-0): > 100 µM
GI50 (UO-31): > 100 µM
GI50 (CAKI-1): > 100 µM
GI50 (TK-10): > 100 µM
GI50 (SNB-19): > 100 µM
GI50 (U251): > 100 µM
GI50 (SF-268): > 100 µM
GI50 (SNB-75): > 100 µM
GI50 (SF-539): > 100 µM
GI50 (SF-295): > 100 µM
GI50 (COLO 205): > 100 µM
GI50 (HCT-116): > 100 µM
GI50 (HT29): > 100 µM
GI50 (SW-620): > 100 µM
GI50 (HCT-15): > 100 µM
GI50 (HCC-2998): > 100 µM
GI50 (KM12): > 100 µM
GI50 (OVCAR-4): > 100 µM
GI50 (OVCAR-8): > 100 µM
GI50 (SK-OV-3): > 100 µM
GI50 (OVCAR-5): > 100 µM
GI50 (OVCAR-3): > 100 µM
GI50 (IGROV1): > 100 µM
GI50 (MDA-N): > 100 µM
GI50 (BT-549): > 100 µM
GI50 (MCF7): > 100 µM
GI50 (MDA-MB-435): > 100 µM
GI50 (MDA-MB-231/ATCC): > 100 µM
GI50 (HS 578T): > 100 µM
GI50 (PC-3): > 100 µM
GI50 (DU-145): > 100 µM
GI50 (NCI-H226): > 100 µM
GI50 (A549/ATCC): > 100 µM
GI50 (NCI-H23): > 100 µM
GI50 (NCI-H522): > 100 µM
GI50 (HOP-62): > 100 µM
GI50 (EKVX): > 100 µM
GI50 (HOP-92): > 100 µM
% inhibition RL DHFR (RL DHFR; @ 10 μM): 40% @ 10 μM
GI50 (SK-MEL-2): > 100 µM
GI50 (M14): > 100 µM
GI50 (UACC-257): > 100 µM
GI50 (UACC-62): > 100 µM
GI50 (MALME-3M): > 100 µM
GI50 (LOX IMVI): > 100 µM
GI50 (SK-MEL-28): > 100 µM
GI50 (SR): > 100 µM
GI50 (CCRF-CEM): > 100 µM
GI50 (RPMI-8226): > 100 µM
GI50 (HL-60 (TB)): > 100 µM
GI50 (MOLT-4): > 100 µM
GI50 (K-562): > 100 µM
GI50 (NCI-H460): > 100 µM
GI50 (SK-MEL-5): > 100 µM
GI50 (NCI/ADR-RES): > 100 µM

Nc1nc(N)c2c(CNc3cccc4cc5ccccc5cc34)coc2n1
GI50 (ACHN): 18.1 µM
GI50 (RXF 393): 2.98 µM
GI50 (786-0): 10.6 µM
GI50 (UO-31): 23.3 µM
GI50 (CAKI-1): 17.8 µM
GI50 (TK-10): 19.5 µM
GI50 (SNB-19): 13.1 µM
GI50 (U251): 14.5 µM
GI50 (SF-268): 14.9 µM
GI50 (SNB-75): 3.61 µM
GI50 (SF-539): 22.3 µM
GI50 (SF-295): 19 µM
GI50 (COLO 205): 30.2 µM
GI50 (HCT-116): 16.8 µM
GI50 (HT29): 24.6 µM
GI50 (SW-620): 25.6 µM
GI50 (HCT-15): 30.5 µM
GI50 (HCC-2998): 19.1 µM
GI50 (KM12): 26.5 µM
GI50 (OVCAR-4): 11.4 µM
GI50 (OVCAR-8): 14.8 µM
GI50 (SK-OV-3): 17.2 µM
GI50 (OVCAR-5): 31.1 µM
GI50 (OVCAR-3): 16.5 µM
GI50 (IGROV1): 17.5 µM
GI50 (MDA-N): 28.8 µM
GI50 (MCF7): 12 µM
GI50 (MDA-MB-435): 19.1 µM
GI50 (MDA-MB-231/ATCC): 17.9 µM
GI50 (HS 578T): 12.8 µM
GI50 (PC-3): 15.1 µM
GI50 (DU-145): 14.7 µM
GI50 (NCI-H226): 15.3 µM
GI50 (A549/ATCC): 15.2 µM
GI50 (NCI-H23): 17.5 µM
GI50 (NCI-H522): 14.7 µM
GI50 (HOP-62): 12.4 µM
GI50 (EKVX): 14.5 µM
GI50 (HOP-92): 14.6 µM
% inhibition RL DHFR (RL DHFR; @ 51 μM): 37% @ 51 μM
GI50 (SK-MEL-2): 29.9 µM
GI50 (M14): 25.9 µM
GI50 (UACC-257): 18.3 µM
GI50 (UACC-62): 16.7 µM
GI50 (MALME-3M): 6.74 µM
GI50 (LOX IMVI): 16.6 µM
GI50 (SK-MEL-28): 28.1 µM
GI50 (SR): 8.36 µM
GI50 (CCRF-CEM): 16.6 µM
GI50 (RPMI-8226): 29.8 µM
GI50 (HL-60 (TB)): 15.9 µM
GI50 (MOLT-4): 20.6 µM
GI50 (K-562): 33.8 µM
GI50 (NCI-H460): 13.7 µM
GI50 (SK-MEL-5): 20.5 µM
GI50 (NCI/ADR-RES): 22.3 µM
